The assay can be described thus: Evaluated for the activation of human thrombin receptor measured by platelet aggregation.

The term EC50 denotes the midpoint of the concentration-response curve. Low readings indicate a more potent agent, high ones a less potent agent.

In turn, `CC(C)C[C@H](NC(=O)[C@H](CC(C)C)NC(=O)[C@H](Cc1ccccc1)NC(=O)CCN)C(=O)N[C@@H](CCCNC(=N)N)C(N)=O` [(S)-2-[(S)-2-(3-Amino-propionylamino)-3-phenyl-propionylamino]-4-methyl-pentanoic acid [(S)-1-((S)-1-carbamoyl-4-guanidino-butylcarbamoyl)-3-methyl-butyl]-amide] yielded an EC50 of 35 µM.

The values above are taken from BindingDB's records for doi:10.1021/jm00020a029 (Merck Research Laboratories, 1995).
